We go through one substance from patent publication US11766432B2, “Cleavable conjugates of catechol compounds and water-soluble polymers and methods of treatment using the same” (SERINA THERAPEUTICS, INC., priority 2018, dated 2023).

The test system of the data set is skin at injection site.

Take “POZ10p20k[Apo (4′-triazolebutanoate)(mono-ethyl succinate]10 [POZ-Apomorphine G]”: for the setting “primates, SC injection 3.0 mg/kg (apomorphine equivalents), multiple doses”, the “tolerability after SC injection” value was “well tolerated”. Also, the “skin at the site of injection 12 hours after the third dose (day 14)” value (weekly SC injection 3.0 mg/kg (apomorphine equivalents)) was “appeared normal with no sign of erythema and swelling”.
